Earlier results in patent US9783495B2, “Treatment for lipodystrophy” (Cadila Healthcare Limited, priority 2011, dated 2017).

Tested on: HIV-infected men with central obesity and low testosterone levels
Conditions: transdermal gel 10 g daily, 24 weeks; vs placebo; cited from earlier work

C[C@]12CC[C@H]3[C@@H](CCC4=CC(=O)CC[C@@]43C)[C@@H]1CC[C@@H]2O [testosterone]
changes in lipid levels, fasting blood glucose levels, insulin levels, or insulin resistance: no statistically significant differences
